The values below come from PMC3118939 (Chemical research in toxicology, 2011).

The subject of one data set is human hepatocytes. Nature of the data set: 4-ABP- and HAA-DNA adduct formation in freshly cultured human hepatocytes. The following applies: human versus rat hepatocytes; 10 μM.
Another data set concerns rat hepatocytes. As to conditions: dose 10 μM; cited from earlier work.

On to `Nc1ccc(-c2ccccc2)cc1` [4-ABP, 4-aminobiphenyl], for which the “adduct level in human hepatocytes relative to rat hepatocytes” value in the data set with human hepatocytes is recorded as “similar”. In addition, the “dose converted into N-oxidation products” value with rat hepatocytes is listed as “up to 23%”.
